The subject of this test is primary human hepatocytes. As to the kind of experiment: Intracellular lipid accumulation after 72 h by fluorescence microscopy, PHH model for NASH, Example 2. The class given is cell-based. Conditions: donor 1, FFA+TNFα, AA Conc. 25X. On the procedure:
PHH from two healthy human donors (Lonza, TRL) were seeded on day 0 at density of 6e04 cells in 96 well optical microplates (Thermofisher) in hepatocyte plating media (William's E medium, WEM) (Gibco) supplemented with 10% heat-inactivated FBS (Atlanta Bio), 2 mM Glutamax (Gibco), and 0.2% Primocin (InVivoGen) and incubated for 6 hours at 37° C., 5% CO2. After 6 hours, cells were washed twice and incubated overnight at 37° C., 5% CO2 with Hepatocytes defined medium (Corning) supplemented with 2 mM Glutamax (Gibco), and 1× Penicillin/Streptomycin. On day 1, cells were washed twice and incubated for 24 h in the hepatocyte culture media in the same conditions described above. […]
After 72 hours, cells were washed twice in 100 ul PBS 1× (Gibco), fixed with 4% Paraformaldehyde, and washed twice with PBS 1× (100 ul). […] The LipidTOX™ neutral lipid stain has an extremely high affinity for neutral lipid droplets that was detected by fluorescence microscopy using a high content imager (Molecular Devices). Data was normalized to the cell concentration determined by nuclei count. Images were analyzed and total lipid area was calculated using granularity module in MetaXpress 6 software. […]

`N=C(N)NCCC[C@H](N)C(=O)O` [R, L-arginine]: the “Lipid Median (median fold change from control)” value is −0.007.
